Source: article PMC5385343, “Crystal Structure of Glyceraldehyde-3-Phosphate Dehydrogenase from the Gram-Positive Bacterial Pathogen A. vaginae, an Immunoevasive Factor that Interacts with the Human C5a Anaphylatoxin” (Frontiers in Microbiology, 2017)

Tested on: O=P(O)(O)O
Experiment: purified protein
Settings: 40 mM Tris-HCl pH 8.5, 2 mM EDTA, 25 °C, 0.1 μM enzyme, Pi varied 0.65-24 mM, co-substrates NAD+ and G3P, fixed concentrations not given

For AvGAPDH (Fannyhessea vaginae DSM 15829), which Km is on record?
The Km was 3.4 ± 0.6 mM.

And the Vmax?
Its Vmax is 174000 µM/min/mg.

And the kcat?
Its kcat is 29 s⁻¹.

What about the kcat/Km of the same substance?
The kcat/Km was 8000 M⁻¹ s⁻¹.
